Patent EP3331365B1, “AGENT FOR FIGHTING FISH PARASITES” (Pharmaq AS, priority 2015, dated 2017)

Test system: Atlantic salmon (Salmo salar)
Settings: 2ppm for 60 minutes by bath; 12°C seawater

## CC(C)c1cc(Oc2ccccc2)cc(C(C)C)c1NC(=S)NC(C)(C)C [Diafenthiuron, 1-tert-butyl-3-(2,6-diisopropyl-4-phenoxyphenyl)thiourea]
  toxic effect in the treated fish: no toxic effect
